Test results published in PMC3491036, “Xanthurenic Acid Binds to Neuronal G-Protein-Coupled Receptors That Secondarily Activate Cationic Channels in the Cell Line NCB-20” (PLoS ONE, 2012).
Like-named read-outs stand apart in the source and are kept apart here.

Legend:
[1] = system: differentiated NCB-20 cells; settings: XA 20–30 µM
Method: NCB-20 cells were plated at low density (10^4 cells/dish) in 35-mm dishes and differentiated with 1 mM db-cAMP. The culture medium was replaced twice a week and the cells were used after 5 days in culture. Cells were recorded either in cell-attached or whole-cell configuration of the patch-clamp technique using an Axopatch-B200 amplifier (Axon Instruments, CA, USA) in its voltage-clamp mode. […] Junction potentials were calculated using the routine procedure in the Clampex software (Axon instruments, CA, USA) and taken into account for current-voltage (I–V) relationships and reversal potential calculation according to the recording configuration.
Data were analyzed offline using the clampfit routine of the Pclamp software package. The given results are means±SEM and statistical significance of the difference between means was determined using one way ANOVA followed by Dunnett's Multiple Comparison test.

[2] = system: XA binding sites on crude synaptosomal membranes from rat brain; test: [3H]-XA saturation and kinetic binding on crude synaptosomal membranes from rat brain; settings: in the presence of 1 mM non-radioactive XA, pH 7.4, 0°C
Method: Brains were rapidly extracted from adult male Wistar rats killed by decapitation after being stunned. All the following procedures were done with buffers cooled at 0°C. Brains were homogenized with a motor driven Teflon/glass apparatus in 10 vol (W/V) of sucrose 0.32 M containing potassium phosphate buffer pH 7.2 and 2 mM EDTA. After centrifugation at 1,500 g for 10 min to remove the crude nuclear fraction, the supernatant was spun at 35,000 g for 20 min. The pellet obtained was resuspended in lysis buffer (2 mM EDTA/water pH 6.0 at 0°C, spun at 100,000 g for 20 min). After washing the pellet with potassium phosphate buffer 50 mM, pH 6.0, the crude membrane fraction was directly used for further experiments or stored at −80°C.
Bound from free ligand was separated by rapid filtration on 25 mm Whatman GF/B filters and washing with incubation buffer (3×3 ml at 0°C). Radioactivity on filters was measured by liquid scintillation counting.

O=C(O)c1cc(O)c2cccc(O)c2n1 [XA, Xanthurenic acid]
cellular conductance activated by XA ([1]; high chloride pipette medium): 11.1±2.6 nS
cellular conductance activated by XA ([1]; low chloride pipette medium): 12.7±3.2 nS
dissociation rate constant (Koff) [2]: 1.26 min⁻¹
